PubChem BioAssay AID2776 (Johns Hopkins Ion Channel Center, 2010)
The list shows a part of the results, in another mix than the full data. Active and inactive are the calls of the source.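 The calls were made as follows: active = compounds whose fluorescence signal differed from control wells by over 3 SD, either direction, in both duplicate plates; inactive = the rest.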

Sequences of proteins named here, by UniProt entry; tags and fusion partners are left off. A change or cut given only in a name is not applied to a line headed by its entry.
UniProt Q9QUQ5: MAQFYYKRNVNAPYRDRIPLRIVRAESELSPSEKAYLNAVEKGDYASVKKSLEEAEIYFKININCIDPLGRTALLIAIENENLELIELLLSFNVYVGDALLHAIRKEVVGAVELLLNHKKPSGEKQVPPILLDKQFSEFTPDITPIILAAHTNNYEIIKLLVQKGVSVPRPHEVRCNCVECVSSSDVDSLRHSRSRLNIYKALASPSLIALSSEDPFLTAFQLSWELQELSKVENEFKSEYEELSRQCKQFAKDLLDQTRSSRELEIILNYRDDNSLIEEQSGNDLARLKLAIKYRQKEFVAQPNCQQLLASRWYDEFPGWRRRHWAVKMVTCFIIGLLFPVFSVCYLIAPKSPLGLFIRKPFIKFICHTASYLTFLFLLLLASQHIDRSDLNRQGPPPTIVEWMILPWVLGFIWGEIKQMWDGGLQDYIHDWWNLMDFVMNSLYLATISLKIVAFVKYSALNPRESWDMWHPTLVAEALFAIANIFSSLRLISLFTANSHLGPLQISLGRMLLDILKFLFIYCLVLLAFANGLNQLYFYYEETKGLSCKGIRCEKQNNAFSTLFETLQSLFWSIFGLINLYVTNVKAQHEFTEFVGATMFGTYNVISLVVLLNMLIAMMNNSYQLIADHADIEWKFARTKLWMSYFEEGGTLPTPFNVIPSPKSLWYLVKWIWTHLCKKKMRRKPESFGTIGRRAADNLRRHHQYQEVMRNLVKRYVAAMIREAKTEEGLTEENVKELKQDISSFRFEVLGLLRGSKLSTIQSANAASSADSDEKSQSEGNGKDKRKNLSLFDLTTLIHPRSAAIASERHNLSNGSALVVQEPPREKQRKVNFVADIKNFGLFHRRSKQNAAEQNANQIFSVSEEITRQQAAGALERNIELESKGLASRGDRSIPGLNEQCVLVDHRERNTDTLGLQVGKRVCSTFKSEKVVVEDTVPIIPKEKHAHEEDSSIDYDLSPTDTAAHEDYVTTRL

Biological target: Short transient receptor potential channel 4 (Mus musculus) (UniProt Q9QUQ5)
Experiment: mouse TRPC4 membrane potential modulation by TRPC6 hits, confirmation, selectivity assay for TRPC6 inhibitor project, cell-based, second specificity screen, HEK293 TRPC4/mu-opioid (AID 2776)
Conditions: HEK293 TRPC4/MOR, membrane potential dye fluorescence, at 10 µM, channel activated by saturating DAMGO dose; stronger effect = higher value

Q: For CCC1=CC2Cc3nc4ccc(Cl)cc4c(N)c3C(C1)C2 (stereo not drawn), which inhibition is on record?
A: active: 22.5%

Q: Which outcome does the source give for CN1CCCC(OC(=O)C(c2ccccc2)c2ccccc2)C1 (stereo not drawn) here?
A: inactive

Q: With O=[N+]([O-])c1ccc(O)c(/C=N/Nc2ccc([N+](=O)[O-])cc2[N+](=O)[O-])c1 as the compound, how does the inhibition read?
A: active: 66%
